This is an account of results in PubChem BioAssay (EPA / NIEHS).

Amino acid sequences for entries named in this document (tags omitted).
UniProt P01375, whole entry: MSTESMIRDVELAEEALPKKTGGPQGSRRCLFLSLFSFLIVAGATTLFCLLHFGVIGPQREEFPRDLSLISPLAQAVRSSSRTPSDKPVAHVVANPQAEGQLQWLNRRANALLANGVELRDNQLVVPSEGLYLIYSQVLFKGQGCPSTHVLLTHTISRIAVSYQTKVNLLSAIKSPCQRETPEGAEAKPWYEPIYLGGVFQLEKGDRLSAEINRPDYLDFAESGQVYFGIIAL
UniProt P03372, whole entry: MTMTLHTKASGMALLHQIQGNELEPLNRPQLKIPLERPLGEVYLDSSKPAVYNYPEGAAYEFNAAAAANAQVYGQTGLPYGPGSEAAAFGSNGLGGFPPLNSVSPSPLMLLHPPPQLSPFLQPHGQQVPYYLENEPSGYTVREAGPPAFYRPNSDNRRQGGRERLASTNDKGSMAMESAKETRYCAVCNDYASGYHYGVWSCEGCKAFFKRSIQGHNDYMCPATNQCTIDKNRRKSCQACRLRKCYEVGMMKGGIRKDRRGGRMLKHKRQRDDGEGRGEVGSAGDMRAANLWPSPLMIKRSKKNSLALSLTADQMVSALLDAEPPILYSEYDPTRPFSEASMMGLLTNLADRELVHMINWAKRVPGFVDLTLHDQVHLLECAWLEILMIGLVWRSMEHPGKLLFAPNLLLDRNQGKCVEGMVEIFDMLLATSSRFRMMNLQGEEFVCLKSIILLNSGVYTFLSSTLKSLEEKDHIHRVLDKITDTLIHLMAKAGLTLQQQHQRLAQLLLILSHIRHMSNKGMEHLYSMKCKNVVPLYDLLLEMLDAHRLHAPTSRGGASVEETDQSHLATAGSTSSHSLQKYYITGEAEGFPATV

SMILES strings stand for the structures. This is a selection; strong and weak results do not stand in their true shares. Inconclusive results are not listed. The source made the active and inactive calls. Rule for the calls, unless noted: active = hit-call score of the fitted dose curve at least 0.9, where 1 is the maximum; inconclusive = response in the unintended direction; inactive = score below 0.9.

Assay [1] can be described thus: CCTE_Deisenroth_AIME_384WELL_CTox_Active: Cytotoxicity Assessment (CTOX) in CCTE's 384-well Estrogen Receptor Transactivation Assay with AIME metabolic competence (metabolism positive), Deisenroth Lab (AID 2284037).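 Note: chemicals first conditioned 2 h by alginate-bound induced rat liver S9 before cells; activity means signal loss indicating cell death.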 A digest of the protocol:
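Chemicals pre-incubated 2 hours with alginate-immobilised phenobarbital/beta-naphthoflavone-induced male Sprague Dawley rat liver S9, then conditioned medium applied 24 hour to VM7Luc4E2 cells. Viability by fluorogenic protease substrate; 10-point series 0.002 - 200 uM.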

Assay [2] is described as follows: CCTE_Deisenroth_AIME_384WELL_CTox_Inactive: Cytotoxicity Assessment (CTOX) in CCTE's 384-well Estrogen Receptor Transactivation Assay without AIME metabolic competence (metabolism negative), Deisenroth Lab (AID 2284039).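 Note: cell viability via live-cell protease substrate cleaved to fluorescent probe; cells exposed 24 h to medium preincubated 2 h with alginate-water beads without S9; loss of fluorescence signal means loss of viability.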 The procedure, abridged:
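Fluorescence from a live-cell protease substrate, read after 24 h in VM7Luc4E2 cells, indicated viability. Test medium came from a 2 h AIME step without hepatic S9 (alginate-water microspheres); concentrations spanned 0.002 - 200 uM, single technical replicate per run.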

Assay [3] is described as follows: BSK_BT_PBMCCytotoxicity: PBMC Cytotoxicity Assessment in the BioMAP Diversity Plus: BT Assay (AID 2284225; active = hit-call score of the fitted dose curve at least 0.9, where 1 is the maximum; inactive = score below 0.9;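 note: PBMC viability measured by Alamar Blue dye reduction fluorescence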). Conditions: primary human B cells with PBMC. The procedure, abridged: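 75,000 cells/well; cpd 1 h → SEB + TSST-1 (20 ng/mL final each) → 90 h → Alamar Blue 6 h → fluor. 546/580 nm. DMSO = neg. control/baseline.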
Read-out in assay [4]: Secreted IgG (sIgG), gene 3500
Briefly: BSK_BT_sIgG: BioMAP Diversity Plus: BT Assay for Secreted IgG (sIgG) Biomarker Activity (AID 2284226; active = hit-call score of the fitted dose curve at least 0.9, where 1 is the maximum; inactive = score below 0.9). The following applies: primary human B cells with PBMC. A digest of the protocol: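 Secreted IgG from a human primary B cell–PBMC co-culture was measured by ELISA 24 hours after dosing, with DMSO defining baseline activity.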

Assay [5] can be described thus: BSK_BT_Bcell_Proliferation: Viability Assessment in the BioMAP Diversity Plus: BT Assay for B cell Proliferation (AID 2284227; active = hit-call score of the fitted dose curve at least 0.9, where 1 is the maximum; inactive = score below 0.9). Conditions: primary human B cells with PBMC. A digest of the protocol:
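Using a human primary B cell–PBMC co-culture, the assay measures total protein by sulforhodamine B absorbance as a gauge of proliferation after 72 h. Analysis followed the positive fitting direction with DMSO as baseline.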

Read-out in assay [6]: Interleukin 6 (IL6), IL6 (gene 3569)
Briefly: BSK_BT_xIL6: BioMAP Diversity Plus: BT Assay for Interleukin 6 (IL6) Biomarker Activity (AID 2284228; active = hit-call score of the fitted dose curve at least 0.9, where 1 is the maximum; inactive = score below 0.9). Conditions: primary human B cells with PBMC. The procedure, abridged: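 Secreted IL-6 in the primary human B cell plus PBMC system, measured by Luminex at 24 h post-chemical, DMSO as baseline. Alamar Blue viability: 75,000 cells/well, chemical 1 h before SEB/TSST-1 (20 ng/mL each), 90 h, then 6 h dye.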

Read-out in assay [7]: Interleukin 17A (IL17A), IL17A (gene 3605)
In words: BSK_BT_xIL17A: BioMAP Diversity Plus: BT Assay for Interleukin 17A (IL17A) Biomarker Activity (AID 2284229; active = hit-call score of the fitted dose curve at least 0.9, where 1 is the maximum; inactive = score below 0.9). The following applies: primary human B cells with PBMC. The procedure, abridged: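 Luminex xMAP quantification of secreted IL-17A after 24 h chemical exposure of a primary human B cell/PBMC co-culture. Signal increases fitted relative to DMSO negative control.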

Read-out in assay [8]: Tumor necrosis factor (Homo sapiens) (UniProt P01375)
In words: BSK_BT_xTNFa: BioMAP Diversity Plus: BT Assay for Tumor necrosis factor alpha (TNF-alpha) Biomarker Activity (AID 2284230; active = hit-call score of the fitted dose curve at least 0.9, where 1 is the maximum; inactive = score below 0.9). Conditions: primary human B cells with PBMC. The procedure, abridged:
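Endpoint derived in the positive direction versus DMSO vehicle. Cells: B cells together with PBMC, exposed 24 h before TNF-alpha in the medium was read on the Luminex xMAP platform.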

Read-out in assay [9]: Vascular cell adhesion molecule 1 (VCAM1), VCAM1 (gene 7412)
Briefly: BSK_MyoF_VCAM1: BioMAP Diversity Plus: MyoF Assay for Vascular cell adhesion molecule 1 (VCAM1) Biomarker Activity (AID 2284231; active = hit-call score of the fitted dose curve at least 0.9, where 1 is the maximum; inactive = score below 0.9). The following applies: primary human lung fibroblasts. A digest of the protocol: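 ELISA readout of VCAM-1 on human lung fibroblast cultures 24 hours after dosing, analyzed for signal gain relative to DMSO. Overt cytotoxicity was checked by sulforhodamine B total-protein staining in parallel cultures.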

Read-out in assay [10]: Collagen I, COL1A1 (gene 1277)
Briefly: BSK_MyoF_CollagenI: BioMAP Diversity Plus: MyoF Assay for Collagen I Biomarker Activity (AID 2284238; active = hit-call score of the fitted dose curve at least 0.9, where 1 is the maximum; inactive = score below 0.9). The following applies: primary human lung fibroblasts. The procedure, abridged:
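Collagen I levels measured by ELISA on human lung fibroblast cultures 24 h post-dosing, with curve fitting in the positive direction relative to DMSO; SRB staining of parallel wells marked cytotoxicity.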

Read-out in assay [11]: Collagen III, COL3A1 (gene 1281)
In words: BSK_MyoF_CollagenIII: BioMAP Diversity Plus: MyoF Assay for Collagen III Biomarker Activity (AID 2284239; active = hit-call score of the fitted dose curve at least 0.9, where 1 is the maximum; inactive = score below 0.9). Conditions: primary human lung fibroblasts. The procedure, abridged:
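Collagen III biomarker quantified by ELISA in human lung fibroblast cultures 24 h after dosing. Activity fitted in the positive direction against DMSO as baseline.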

Read-out in assay [12]: Interleukin 17F (IL17F), IL17F (gene 112744)
In words: BSK_BT_xIL17F: BioMAP Diversity Plus: BT Assay for Interleukin 17F (IL17F) Biomarker Activity (AID 2284243; active = hit-call score of the fitted dose curve at least 0.9, where 1 is the maximum; inactive = score below 0.9). Conditions: primary human B cells with PBMC. A digest of the protocol:
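Human B cells co-cultured with PBMC; secreted IL-17F quantified by LumineX xMAP 24 hours after chemical dosing. Activity fitted in the positive direction against DMSO negative control as baseline.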

Read-out in assay [13]: Actin alpha 1 (ACTA1), ACTA1 (gene 58)
In words: BSK_MyoF_ACTA1: BioMAP Diversity Plus: MyoF Assay for Actin alpha 1 (ACTA1) Biomarker Activity (AID 2284244; active = hit-call score of the fitted dose curve at least 0.9, where 1 is the maximum; inactive = score below 0.9). Conditions: primary human lung fibroblasts. The procedure, abridged:
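Measured by ELISA: alpha-smooth muscle actin in human primary lung fibroblasts 24 h after dosing, with DMSO as baseline and upward signal change as the fitted direction.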

Assay [14] deals with Estrogen receptor (Homo sapiens) (UniProt P03372). Briefly: CCTE_Deisenroth_AIME_384WELL_LUC_Active: CCTE's 384-well Estrogen Receptor Transactivation Assay with AIME metabolic competence (ERTA luciferase; metabolism positive), Deisenroth Lab (AID 2284030). A digest of the protocol:
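VM7Luc4E2 breast cells were given, for 24 hours, medium pre-incubated for 2 hours with parent chemical (0.002-200 uM, 10 concentrations) and alginate-encapsulated phenobarbital/beta-naphthoflavone-induced rat hepatic S9. Luciferase gain of signal was fitted against 17beta-estradiol; n=4 or more.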

Assay [15] shares this target. In words: CCTE_Deisenroth_AIME_384WELL_LUC_Inactive: CCTE's 384-well Estrogen Receptor Transactivation Assay without AIME metabolic competence (ERTA luciferase; metabolism negative), Deisenroth Lab (AID 2284038).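 Note: VM7Luc4E2 breast cells given medium preincubated 2 h with S9-free microspheres; hits raise estrogen receptor luciferase signal so potencies reflect agonists.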 The procedure, abridged:
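Chemicals (10-point series, 0.002 - 200 uM) were incubated 2 hours with alginate-water microsphere lids lacking S9, then the conditioned medium was transferred to VM7Luc4E2 breast cells for 24 hour. Luciferase induction was read by bioluminescence, fitted upward relative to 17beta-estradiol.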

The target is the same in assay [16]. Briefly: CCTE_Deisenroth_AIME_384WELL_LUC_Shift: CCTE's 384-well Estrogen Receptor Transactivation Assay with AIME metabolic competence data shift (ERTA luciferase; difference in metabolism positive and negative), Deisenroth Lab (AID 2284041; active = hit-call score of the fitted dose curve at least 0.9, where 1 is the maximum; inactive = score below 0.9;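 note: shift is response with S9 minus without S9 so positive means metabolism raised ER signal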). A digest of the protocol: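 Chemicals (0.002–200 uM, 10 points) pre-incubated 2 h with alginate-encapsulated induced male Sprague Dawley rat liver S9 or S9-free, then medium applied 24 h to VM7Luc4E2 cells; luciferase. Endpoint is per-concentration difference, S9-positive minus negative.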

Assay [17] can be described thus: CCTE_Shafer_MEA_acute_synchrony_index: CCTE's Neural Acute Assay for Synchrony, Shafer Lab (AID 2284027; active = hit-call score of the fitted dose curve at least 0.9, where 1 is the maximum; inactive = score below 0.9;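 note: network synchrony index of spontaneous spiking in primary rat cortical neurons on MEAs; fitted for loss of signal so actives lower synchrony relative to DMSO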). A digest of the protocol: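 Spontaneous firing of mature rat cortical networks is captured extracellularly on microelectrode arrays at 37 C, with wells needing ≥10 active electrodes. Each compound (0.03-40 uM) is judged by the change in synchrony index from baseline over 40 min.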

For the next assay, the system named is DIO2 (gene 1734). Briefly: CCTE_GLTED_hDIO2: CCTE's human Deiodinase 2 (DIO2) Inhibition Assay, Great Lakes Toxicology and Ecology Division (GLTED) Lab (AID 2284050). A digest of the protocol: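 In this cell-free test, chemicals are exposed to human deiodinase type 2 for 3 hours. Released iodide is determined spectrophotometrically via the Sandell-Kolthoff method, and signal loss relative to DMSO is fitted.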

Another assay relates to DIO3 (gene 1735). In words: CCTE_GLTED_hDIO3: CCTE's human Deiodinase 3 (DIO3) Inhibition Assay, Great Lakes Toxicology and Ecology Division (GLTED) Lab (AID 2284055).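 Note: potency is for inhibition seen as loss of released iodide signal.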 A digest of the protocol:
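Enzyme activity is tracked as iodide release from substrate by recombinant human DIO3 over 3 h with chemical present. A second Sandell-Kolthoff step converts iodide to an absorbance signal, fitted relative to DMSO.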

Assay [18] can be described thus: CCTE_Shafer_MEA_acute_LDH: CCTE's Lactate Dehydrogenase Assay for Cytotoxicity in the Neural Acute Assay, Shafer Lab (AID 2284086).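 Note: active means LDH release rises above DMSO vehicle level.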 A digest of the protocol:
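Released lactate dehydrogenase, read at 490 nm, indicated cytotoxicity after acute 40-min compound treatment of rat cortical neuron networks grown on 48-well MEA plates.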

A word on the AC50: it is the concentration giving half of the maximal activity seen.

Take `Cc1ccc([N+](=O)[O-])cc1[N+](=O)[O-]`: the compound was called inactive in assay [1] and in assay [2].

As for `Cc1ccc([N+](=O)[O-])c([N+](=O)[O-])c1`, the result in assay [3], in assay [10], in [11] and in assay [13] was inactive. Besides, the half-maximal activity concentration (AC50) in assay [4] was active: 20 µM; in assay [5], active: 20 µM; in assay [6], active: 9.75 µM; in assay [7], active: 8.79 µM; in [8], active: 30.3 µM; in assay [9], active: 29.3 µM. In assay [12], the AC50 was active: 20 µM.

`Cc1c([N+](=O)[O-])cccc1[N+](=O)[O-]`: the result in assay [1] and in [2] was inactive.

For `O=[N+]([O-])OCC(CO[N+](=O)[O-])(CO[N+](=O)[O-])CO[N+](=O)[O-]`, the call in assay [14], in [15] and in assay [16] was inactive.

On to `COP(C)(=O)OC`, for which the compound was called inactive in assay [14], in assay [1], in assay [15], in assay [2] and in assay [16].

Consider `O=[N+]([O-])c1cccc([N+](=O)[O-])c1`, for which the compound was called inactive in assay [17], in assay [14], in assay [1], in [15], in assay [2] and in [16].

`Cc1cccc([N+](=O)[O-])c1[N+](=O)[O-]`: the results for the AC50 in the assay on DIO2 (gene 1734) and in the assay with DIO3 (gene 1735) were active: 31.5 µM and active: 26 µM, respectively.

On to `CC(C)OP(C)(=O)OC(C)C`, for which the result in assay [17], in assay [14], in assay [1], in assay [15], in assay [2] and in assay [16] was inactive. Further, in assay [18], the compound was called inactive.
